Laboratory results taken from patent US20260234099A1, “Endocannabinoid ligands and related analogs” (Northeastern University, priority 2023, published 2026).

Sequences of proteins named here, by UniProt entry; tags and fusion partners are left off.
UniProt P20272, whole entry: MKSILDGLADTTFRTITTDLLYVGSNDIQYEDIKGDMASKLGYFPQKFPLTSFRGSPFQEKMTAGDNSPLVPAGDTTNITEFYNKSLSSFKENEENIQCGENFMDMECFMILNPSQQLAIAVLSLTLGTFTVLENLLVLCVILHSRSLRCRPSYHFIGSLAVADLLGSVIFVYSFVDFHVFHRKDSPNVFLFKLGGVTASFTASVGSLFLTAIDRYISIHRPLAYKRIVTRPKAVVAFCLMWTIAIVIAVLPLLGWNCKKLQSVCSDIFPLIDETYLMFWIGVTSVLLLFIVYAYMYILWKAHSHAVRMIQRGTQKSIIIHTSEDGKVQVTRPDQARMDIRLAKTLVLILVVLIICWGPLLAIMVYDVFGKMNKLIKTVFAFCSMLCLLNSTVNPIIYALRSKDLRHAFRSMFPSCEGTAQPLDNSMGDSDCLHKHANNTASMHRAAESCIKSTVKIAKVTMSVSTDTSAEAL

What was measured:
CB1 receptor (rCB1) = CB1 receptor (rCB1) (Rattus norvegicus, UniProt P20272); assay: cAMP assay (inhibition of FSK stimulated cAMP), CB1; assay type: cell-based; conditions: class symbols
Procedure: FIG. 1A is a graph providing data of the % inhibition of FSK stimulated cAMP for compound 5.4.3d for rCB1.
Further functional characterization of some of the disclosed compounds tested initially for “binding affinity” or for GTPγ-S binding was performed by using the cyclic adenosine monophosphate (cAMP) assay. Key compounds initially characterized functionally using the GTPγ-S assay were also doubly tested using the cAMP assay to unambiguously confirm their functional profiles. The functional potency of the compounds tested using the cyclase assay is also represented by the EC50 (cAMP) value and similarly the lower the EC50 (cAMP) value the higher the potency of the compound for the receptor. A detailed description of the methods used to test compounds using the cAMP assay is given in Yingpeng, et al. J. Med. Chem. (2018) 61, 8639-8657 the content of which is hereby incorporated by reference. The EC50 values (potency of a test compound) of the functional assays may or may not be accompanied by the E(max) value in tables 1-5 (efficacy of the test compound). E(max)/efficacy is the maximum GTP stimulation or cAMP inhibition levels and is presented as the percentage of maximum response evoked by a standard CB1/CB2 full agonist (e.g., CP-55,940) for reference see the paper cited above. […]

CB1 receptor = CB1 receptor (Rattus norvegicus, UniProt P20272); assay: GTPγ-S binding assay, CB1; assay type: biochemical; conditions: class symbols; read-out: EC50 (GTP) CB1 receptor
Procedure: The activity of some of the disclosed compounds for the CB1 and CB2 receptors was assessed by using the GTPγ-S binding assay (Tables 2,3,4). As used herein the “effect” of the compound on the GTPγ-S assay is represented by the EC50 (GTP) value. The lower the EC50 (GTP) value the higher the potency of the compound for the receptor A detailed description of the methods used to test compounds using the GTPγ-S assay is given in Parkkari, et al., Biorg. Med. Chem. Letters 2006, 16(9), 2437 and Griffin, et al., J. Pharmacol. Exp. Ther. 1998, 285(2), 553-560 the content of which is hereby incorporated by reference.

CCCCC/C=C\C/C=C\C/C=C\C/C=C\CCCC(=O)OC(CO)CO [Compound 2-AG, 2-arachidonoylglycerol, reference compound]
pEC50 (CB1 receptor (rCB1)): 6.70 to 8.00 | pEC50 (CB1 receptor): 6.00 to 6.70

pEC50: −log10 of the molar value.
